Laboratory results taken from patent US20120244601A1, “[…] INDUCIBLE GENE […]” (priority 2011, published 2012).

B1: Riboswitch B: synthetic theophylline-responsive riboswitch, mRNA sequence SEQ ID NO: 12 (nucleic acid)
chain: GGUACCGGUGAUACCAGCAUCGUCUUGAUGCCCUUGGCAGCACCCGCUGCGCAGGGGGUAUCAACAAGAUG
modifications: chemistry not fully specified
B2: Riboswitch C: synthetic theophylline-responsive riboswitch, mRNA sequence SEQ ID NO: 13 (nucleic acid)
chain: GGUACCUGAUAAGAUAGGGGUGAUACCAGCAUCGUCUUGAUGCCCUUGGCAGCACCAAGGGACAACAAGAUG
modifications: chemistry not fully specified
B3: Riboswitch A: synthetic theophylline-responsive riboswitch, mRNA sequence SEQ ID NO: 11 (nucleic acid)
chain: GGUACCGGUGAUACCAGCAUCGUCUUGAUGCCCUUGGCAGCACCCUGAGAAGGGGCAACAAGAUG
modifications: chemistry not fully specified
B4: Riboswitch D: synthetic theophylline-responsive riboswitch, mRNA sequence SEQ ID NO: 14 (nucleic acid)
chain: GGUACCGGUGAUACCAGCAUCGUCUUGAUGCCCUUGGCAGCACCCUGCUAAGGUAACAACAAGAUG
modifications: chemistry not fully specified

System: MamK-GFP fusion
Assay: MamK-GFP expression imaging in M. magneticum
Conditions: for MamK-GFP expression in the absence of the inducer: no theophylline

Molecule	MamK-GFP expression in the absence of the inducer	levels of MamK-GFP at comparable times post induction (theophylline 1 mM)	suitability of MamK-GFP levels for magnetosome localization studies (theophylline 1 mM)
B1	no visible expression of MamK-GFP	higher levels of MamK-GFP than riboswitch C	levels of MamK-GFP suitable for magnetosome localization studies
B2	no visible expression of MamK-GFP	–	levels of MamK-GFP suitable for magnetosome localization studies
B3	detectable levels of MamK-GFP expression	–	–
B4	detectable levels of MamK-GFP expression	–	–
